Results taken from patent US7816499B2, “Antibodies that selectively bind HDAC9” (Sloan-Kettering Institute for Cancer Research, priority 2001, dated 2010).

Sequences of proteins named here, by UniProt entry; tags and fusion partners are left off. Residues count along the entry.
UniProt Q9UKV0, 1-879 isoform Q9UKV0-4: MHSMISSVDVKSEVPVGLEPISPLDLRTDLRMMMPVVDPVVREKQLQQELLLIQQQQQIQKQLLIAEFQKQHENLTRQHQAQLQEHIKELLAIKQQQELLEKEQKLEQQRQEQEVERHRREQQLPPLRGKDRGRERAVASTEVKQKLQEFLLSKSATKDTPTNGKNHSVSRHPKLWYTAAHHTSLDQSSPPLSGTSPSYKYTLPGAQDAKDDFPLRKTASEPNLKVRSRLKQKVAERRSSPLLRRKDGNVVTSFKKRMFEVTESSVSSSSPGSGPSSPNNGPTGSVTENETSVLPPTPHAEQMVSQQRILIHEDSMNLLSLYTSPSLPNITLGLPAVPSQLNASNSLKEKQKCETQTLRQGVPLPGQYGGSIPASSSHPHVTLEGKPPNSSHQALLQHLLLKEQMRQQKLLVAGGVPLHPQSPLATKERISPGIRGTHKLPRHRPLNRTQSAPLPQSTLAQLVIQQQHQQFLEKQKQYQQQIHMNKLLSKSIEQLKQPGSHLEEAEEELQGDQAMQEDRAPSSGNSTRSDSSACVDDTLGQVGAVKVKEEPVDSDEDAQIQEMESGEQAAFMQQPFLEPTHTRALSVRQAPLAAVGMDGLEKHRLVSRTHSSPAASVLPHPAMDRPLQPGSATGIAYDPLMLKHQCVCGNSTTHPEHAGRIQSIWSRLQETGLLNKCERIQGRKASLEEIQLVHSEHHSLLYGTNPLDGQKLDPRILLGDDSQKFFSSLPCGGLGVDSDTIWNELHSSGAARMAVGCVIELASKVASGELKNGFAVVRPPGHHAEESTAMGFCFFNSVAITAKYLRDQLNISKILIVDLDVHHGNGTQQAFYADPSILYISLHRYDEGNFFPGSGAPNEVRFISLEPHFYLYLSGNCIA

Legend:
HDAC9-FLAG = HDAC9-FLAG (Homo sapiens, UniProt Q9UKV0); conditions: FLUOR DE LYS substrate; TSA 1 μM (FIG. 7), preincubated 15 minutes at room temperature; SAHA concentration not given
HDAC9a-FLAG [1] = biological target: T1, HDAC9a-FLAG (Homo sapiens, UniProt Q9UKV0); conditions: FLUOR DE LYS substrate; TSA 1 μM (FIG. 7), preincubated 15 minutes at room temperature; SAHA concentration not given
HDAC9a-FLAG [2] = biological target: T1, HDAC9a-FLAG; assay: HDAC enzymatic assay, 3H-acetic acid released from 3H-histones; format: biochemical; parameters: made in house; host or cells: human kidney 293T cells, transient transfection, anti-FLAG M2 agarose immunoprecipitation, elution with FLAG peptide; conditions: 3H-histones substrate; SAHA 2 μM (FIG. 8); preincubated 30 minutes at 4° C.
Protocol: The reaction was stopped by the addition of 1M HCl/0.1 acetic acid. Released ^3H-acetic acid was extracted with ethyl acetate and quantified by scintillation counting. For inhibition studies, the immunoprecipitated complexes were preincubated with the different HDAC inhibitors for 30 minutes at 4° C.

CC(/C=C/C(=O)NO)=C\[C@@H](C)C(=O)c1ccc(N(C)C)cc1 [TSA, trichostatin A]
inhibited: inhibition of HDAC9 deacetylase activity (HDAC9-FLAG) | inhibition of HDAC9a deacetylase activity (HDAC9a-FLAG [1]) | inhibition of histone deacetylase activity of HDAC9a-FLAG (HDAC9a-FLAG [2])
